Data from patent US20220152037A1, “USE OF GABAA RECEPTOR MODULATORS FOR TREATMENT OF PAIN” (NEUROCYCLE THERAPEUTIC, INC., priority 2019, published 2022).

System: rat model of fibromyalgia pain (reserpine-induced mechanical allodynia)
Assay: Mechanical allodynia (von Frey 50% response threshold) in reserpine-induced rat model of fibromyalgia pain
Format: in vivo
Details: oral, 0.3 mg/kg and 3 mg/kg; tested time points 1, 2, 4 hours post-dosing
Excerpt: The purpose of the study is to assess the efficacy of the described compounds in the rat model of fibromyalgia pain.
Animals were assigned to treatment groups based on Day 0 pre-dose von Frey 50% response thresholds so that group means of the mean paw withdrawal latencies were approximately equal. Animals were ranked by pre- and post-reserpine baseline change from lowest to highest, and treatments were assigned randomly within stratified sub-groups according to the total number of treatment groups in the study.
The volume of compound 1 or control article injected was 5 mL/kg. The animals were dosed in sequence based on animal number, so that the distribution of treatment across a given set of animals was not predictable.
Mechanical fibromyalgia-associated allodynia is measured using […] (Stoelting©; Wood Dale, Ill., USA) with varying stiffness (0.04, 0.07, 0.16, 0.4, 1.0, 4.0, and 8.0 g) according to the up-down method 1. […] The 50% response threshold is calculated using the formula: […]
Pain was induced by three daily doses of 1 mg/kg reserpine, and mechanical fibromyalgia-associated allodynia was assessed using von Frey filaments. Mechanical fibromyalgia-associated allodynia was measured prior to and the first reserpine injection and 4 days following the third injection. […]

In the case of `CC(C)(O)c1cnn2c(-c3ccc(F)c(-c4c(F)cccc4C#N)c3)cnc2n1` [Compound 1], the “Reversal of reserpine-induced mechanical fibromyalgia-associated allodynia” value is reported as “significant reversal of mechanical fibromyalgia-associated allodynia”.
